Test results reported in patent US8404708B2, “Dual NK1/NK3 receptor antagonists” (Hoffmann-La Roche Inc., priority 2004, dated 2013).

The chains behind the UniProt entries cited, without tags or fusion partners.
UniProt P25103, whole entry: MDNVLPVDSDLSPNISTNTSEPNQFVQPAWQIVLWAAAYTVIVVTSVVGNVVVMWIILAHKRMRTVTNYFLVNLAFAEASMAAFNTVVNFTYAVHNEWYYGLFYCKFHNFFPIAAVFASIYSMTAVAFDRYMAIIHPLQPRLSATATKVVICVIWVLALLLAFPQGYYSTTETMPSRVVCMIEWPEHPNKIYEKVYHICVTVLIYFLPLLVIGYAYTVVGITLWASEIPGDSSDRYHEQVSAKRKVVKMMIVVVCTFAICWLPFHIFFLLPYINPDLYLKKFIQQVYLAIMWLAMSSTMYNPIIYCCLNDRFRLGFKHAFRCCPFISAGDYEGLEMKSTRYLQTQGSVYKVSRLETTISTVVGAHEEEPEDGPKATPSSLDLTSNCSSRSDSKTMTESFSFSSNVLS
UniProt P29371, whole entry: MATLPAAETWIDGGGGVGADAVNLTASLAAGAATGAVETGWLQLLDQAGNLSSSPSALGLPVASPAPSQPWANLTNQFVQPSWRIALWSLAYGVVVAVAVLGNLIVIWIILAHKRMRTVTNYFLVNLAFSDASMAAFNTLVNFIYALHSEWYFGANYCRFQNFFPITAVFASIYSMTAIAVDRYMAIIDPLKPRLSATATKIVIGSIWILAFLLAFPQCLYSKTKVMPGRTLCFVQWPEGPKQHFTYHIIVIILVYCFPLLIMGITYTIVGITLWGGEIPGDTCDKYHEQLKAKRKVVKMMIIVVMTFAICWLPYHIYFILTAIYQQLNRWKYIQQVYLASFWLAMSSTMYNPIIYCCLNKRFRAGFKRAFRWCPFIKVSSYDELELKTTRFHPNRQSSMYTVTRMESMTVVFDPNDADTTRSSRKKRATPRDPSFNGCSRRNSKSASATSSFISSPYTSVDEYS

Assays:
human NK1 receptor = human NK1 receptor (Homo sapiens, UniProt P25103); assay: NK1 receptor binding, [3H]substance P displacement, CHO cell membranes
[1] = molecular target: T1, Recombinant human NK3 (hNK3) receptor (Homo sapiens, UniProt P29371); assay: NK3 receptor binding, [3H]SR142801 displacement, membrane preparations; settings: second value of the cell pKi NK1/NK3
T1 construct: expressed in transfected cells
Description: Non specific binding was determined using 10 μM SB222200. Assay buffer consisted of Tris-HCl (50 mM, pH 7.4), BSA (0.1%), MnCl2 (4 mM) and phosphoramidon (1 μM). Membrane preparations of hNK3 receptors (approximately 2.5 μg/well in a 96 well plate) were used to initiate the incubation for 90 min at room temperature. This assay was terminated by rapid filtration under vacuum through GF/C filters, presoaked for 90 min with PEI (0.3%), with 3×0.5 ml washes of ice-cold Tris buffer (50 mM, pH 7.4) containing 0.1% BSA. The radioactivity retained on the filters was measured by scintillation counting. All assays were performed in duplicate in at least two separate experiments.

Row | Ki (human NK1 receptor) | Compound | pKi NK3 [1]
1 | 741 pM | CN(C(=O)C(C)(C)c1cc(C(F)(F)F)cc(C(F)(F)F)c1)c1cnc(N2C[C@H](O)C[C@H]2CO)cc1-c1ccccc1Cl [Example 97, (2S,4R)-2-(3,5-Bis-trifluoromethyl-phenyl)-N-[4-(2-chloro-phenyl)-6-(4-hydroxy-2-hydroxymethyl-pyrrolidin-1-yl)-pyridin-3-yl]-N-methyl-isobutyramide] | –
2 | 676 pM | CN(C(=O)C(C)(C)c1cc(C(F)(F)F)cc(C(F)(F)F)c1)c1cnc(N2C[C@@H](O)C[C@@H]2CO)cc1-c1ccccc1Cl [Example 139, (2R,4S)-2-(3,5-Bis-trifluoromethyl-phenyl)-N-[4-(2-chloro-phenyl)-6-(4-hydroxy-2-hydroxymethyl-pyrrolidin-1-yl)-pyridin-3-yl]-N-methyl-isobutyramide] | –
3 | 6920 pM | CN(C(=O)C(C)(C)c1cc(C(F)(F)F)cc(C(F)(F)F)c1)c1cnc(N2C[C@H](O)C[C@@H]2CO)cc1-c1ccccc1Cl [Example 96, (2R,4R)-2-(3,5-Bis-trifluoromethyl-phenyl)-N-[4-(2-chloro-phenyl)-6-(4-hydroxy-2-hydroxymethyl-pyrrolidin-1-yl)-pyridin-3-yl]-N-methyl-isobutyramide] | –

Row | Compound | Ki (human NK1 receptor) | pKi NK3 [1]
4 | CN(C(=O)C(C)(C)c1cc(C(F)(F)F)cc(C(F)(F)F)c1)c1cnc(N2C[C@@H](O)C[C@H]2CO)cc1-c1ccccc1Cl [Example 140, (2S,4S)-2-(3,5-Bis-trifluoromethyl-phenyl)-N-[4-(2-chloro-phenyl)-6-(4-hydroxy-2-hydroxymethyl-pyrrolidin-1-yl)-pyridin-3-yl]-N-methyl-isobutyramide] | 776 pM | 9.11/8.83
